One experiment relates to BV2/shMeCP2. Briefly: Test Example 1: anti-5-mC antibody fluorescent staining of MeCP2-knockdown BV2 cells. The conditions noted are these: BV2/shMeCP2 cultured for 2 days in the presence of 5 µg/ml KIT-13; compared with shMeCP2 in the absence of KIT-13; FIG. 2. On the procedure:
In the following, a vector that expresses shRNA targeting mouse MeCP2 (NM_010788) (catalog number: TRCN0000304464, manufactured by Sigma) was used as "shMeCP2 vector". An amplification product from shMeCP2 vector was obtained by PCR to prepare a vector excluding the MeCP2-targeting sequence. The vector was designated as "shCont. vector". The PCR was carried out using a forward primer and a reverse primer for shMeCP2 vector having the base sequences of SEQ ID NO:1 and SEQ ID NO:2, respectively.
Mouse glial cell derived BV2 cells cultured in Dulbecco's Modified Eagle Medium (DMEM, manufactured by Sigma-Aldrich) supplemented with 10% fetal calf serum (FCS, manufactured by Sigma-Aldrich) were transfected with either the shMeCP2 vector or the shCont. vector. By utilization of the puromycin resistance gene contained in the vector, puromycin-resistant lines (concentration of puromycin, 1 µg/ml) were separated. The resulting cells were designated as BV2/shMeCP2 and BV2/shCont., respectively.
BV2/shMeCP2 was cultured for 2 days in DMEM (manufactured by Sigma-Aldrich) containing 10% FCS (manufactured by Sigma-Aldrich), 100 units/ml penicillin, and 100 µg/ml streptomycin (manufactured by Nacalai) in the presence of 5 µg/ml KIT-13 (shMeCP2 + KIT-13) or in the absence of KIT-13 (shMeCP2). As a control, BV2/shCont. was cultured for 2 days in the same medium in the absence of KIT-13 (shCont.). […]

The subject of the next experiment is TIG-107 cells. The experiment can be described thus: Test Examples 2 and 3: anti-5-mC antibody fluorescent staining of TIG-107 cells. As to conditions: TIG-107 cells cultured for 4 days in the presence of 10 µg/ml compound; compared with TIG-107 in the absence of compound; FIG. 4, FIG. 5. On the procedure:
Cells were fixed with a 4% paraformaldehyde (PFA) solution and washed with phosphate-buffered saline (PBS). The obtained samples were treated with 2N HCl at 37°C for 15 minutes. The samples were washed with PBS, and treated with 1% Tx-100/PBS at room temperature for 2 minutes. After washing with PBS, the samples were treated with 1% bovine serum albumin (BSA). An anti-5-mC antibody (#28692, manufactured by Cell Signaling technology) was diluted 1:4000 in 1% BSA-PBS and used as a primary antibody. The primary antibody was reacted with the samples at 25°C for 2 hours. After washing the samples with PBS, the samples were reacted at room temperature for 1 hour in the dark with a solution in which Alexa Fluor 488 anti-rabbit IgG (manufactured by Invitrogen) and 3 mM DAPI were diluted 1:2000 in 1% BSA-PBS. The samples were washed with PBS and rinsed with dH2O, followed by embedding with a cover glass and observation with BZ-X810 (manufactured by Keyence).
TIG-107 cells (JCRB0532) and TIG-120 cells (JCRB0542) were obtained from the JCRB Cell Bank. TIG-107 cells were cultured for 4 days in DMEM (manufactured by Sigma-Aldrich) containing 10% FCS (manufactured by Sigma-Aldrich), 100 units/ml penicillin, and 100 µg/ml streptomycin (manufactured by Nacalai) in the presence of 10 µg/ml KIT-13 (TIG-107 + KIT-13) or in the absence of KIT-13 (TIG-107). As a control, TIG-120 cells were cultured for 4 days in the same medium in the absence of KIT-13 (TIG-120). As in Test Example 1, fluorescent staining images of the samples prepared from the cultured cells were observed.
TIG-107 cells were cultured for 4 days in DMEM (manufactured by Sigma-Aldrich) containing 10% FCS (manufactured by Sigma-Aldrich), 100 units/ml penicillin, and 100 µg/ml streptomycin (manufactured by Nacalai) in the presence of 10 µg/ml KIT-18, in the presence of 10 µg/ml KIT-24 or in the absence of these (-). As in Test Example 1, fluorescent staining images of the samples prepared from the cultured cells were observed, and anti-5-mC antibody positivity rates were determined from the fluorescent staining images.

The text below walks through data of patent EP4846860A1, “DNA METHYLATION PROMOTER, ORAL COMPOSITION FOR PROMOTING DNA METHYLATION, AND USE OF COMPOUND” (dated 2026).

SMILES strings stand for the structures.

Consider `CCCCC/C=C\C/C=C\C/C=C\C/C=C\CCCC(=O)O[C@H](COCCCCCCCCCCCCCCCCCC)COP(=O)(O)OCCN`, for which the “fluorescence intensity derived from 5-methylcytosine” value in the experiment with BV2/shMeCP2 is listed as “significantly increased”. Besides, the “cells positive for 5-methylcytosine (anti-5-mC antibody positivity rates)” value (“cells positive for 5-methylcytosine” below) with TIG-107 cells is listed as “significantly increased”.
For the molecule `CCCCCCCCCCCCCCCCCCOC[C@H](COP(=O)(O)OCCN)OC(=O)CCCCCCCCCCCCCCC.O=C(O)C(F)(F)F`, the “cells positive for 5-methylcytosine” value in the experiment with TIG-107 cells is recorded as “significantly increased”.
For `CCCCCCCC/C=C\CCCCCCCC(=O)O[C@H](COCCCCCCCCCCCCCCCCCC)COP(=O)(O)OCCN.O=C(O)C(F)(F)F`, in the experiment with TIG-107 cells, the “cells positive for 5-methylcytosine” value is listed as “significantly increased”.
